Reference: article PMC11079024, “Identification of a family of species-selective complex I inhibitors as potential anthelmintics” (Nature Communications, 2024)
Values joined by “and” are separate entries in the source; they are usually repeats but may differ in a detail not shown here. Equal entries are not always repeated. Where two headings read alike, the source gives them in different places.

Chains of the proteins cited; added tags and fusions are not shown. Lines headed by an entry give the natural chain unless they say otherwise; changes in a name come on top. Residues count along the entry.
UniProt O75251, 39-213: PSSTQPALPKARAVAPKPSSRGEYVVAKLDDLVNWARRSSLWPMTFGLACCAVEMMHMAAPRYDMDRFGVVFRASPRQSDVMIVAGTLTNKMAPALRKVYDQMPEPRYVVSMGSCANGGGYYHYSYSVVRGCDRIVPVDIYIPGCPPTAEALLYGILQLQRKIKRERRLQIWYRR
UniProt O75306, 34-463: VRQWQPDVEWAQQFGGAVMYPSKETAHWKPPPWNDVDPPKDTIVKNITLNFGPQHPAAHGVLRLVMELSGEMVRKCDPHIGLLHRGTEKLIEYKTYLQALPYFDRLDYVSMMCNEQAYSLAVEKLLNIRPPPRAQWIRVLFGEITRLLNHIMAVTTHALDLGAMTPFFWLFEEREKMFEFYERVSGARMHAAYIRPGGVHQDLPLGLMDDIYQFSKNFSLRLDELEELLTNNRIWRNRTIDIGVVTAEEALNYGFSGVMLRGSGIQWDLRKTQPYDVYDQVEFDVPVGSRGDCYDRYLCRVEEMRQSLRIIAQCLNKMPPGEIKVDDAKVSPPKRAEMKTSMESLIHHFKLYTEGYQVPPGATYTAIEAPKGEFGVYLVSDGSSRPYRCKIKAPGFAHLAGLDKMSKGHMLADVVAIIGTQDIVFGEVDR
UniProt P03886, whole entry: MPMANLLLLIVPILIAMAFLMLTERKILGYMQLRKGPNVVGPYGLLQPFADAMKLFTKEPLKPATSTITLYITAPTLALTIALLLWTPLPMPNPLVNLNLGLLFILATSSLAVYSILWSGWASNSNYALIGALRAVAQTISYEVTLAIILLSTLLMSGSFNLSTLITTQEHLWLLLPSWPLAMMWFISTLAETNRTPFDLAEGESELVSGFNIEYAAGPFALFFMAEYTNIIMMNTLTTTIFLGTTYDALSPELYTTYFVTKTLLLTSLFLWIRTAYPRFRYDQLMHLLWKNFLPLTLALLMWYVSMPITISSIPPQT
UniProt P24887: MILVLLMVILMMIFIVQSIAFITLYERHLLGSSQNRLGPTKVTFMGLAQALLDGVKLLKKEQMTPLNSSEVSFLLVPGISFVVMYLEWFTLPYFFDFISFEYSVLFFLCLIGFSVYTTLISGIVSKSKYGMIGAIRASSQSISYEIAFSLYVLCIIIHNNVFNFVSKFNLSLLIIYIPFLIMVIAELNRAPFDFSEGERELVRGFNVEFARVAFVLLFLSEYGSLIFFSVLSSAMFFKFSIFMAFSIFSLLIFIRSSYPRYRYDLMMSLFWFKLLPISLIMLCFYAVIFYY
UniProt Q93873, 31-482: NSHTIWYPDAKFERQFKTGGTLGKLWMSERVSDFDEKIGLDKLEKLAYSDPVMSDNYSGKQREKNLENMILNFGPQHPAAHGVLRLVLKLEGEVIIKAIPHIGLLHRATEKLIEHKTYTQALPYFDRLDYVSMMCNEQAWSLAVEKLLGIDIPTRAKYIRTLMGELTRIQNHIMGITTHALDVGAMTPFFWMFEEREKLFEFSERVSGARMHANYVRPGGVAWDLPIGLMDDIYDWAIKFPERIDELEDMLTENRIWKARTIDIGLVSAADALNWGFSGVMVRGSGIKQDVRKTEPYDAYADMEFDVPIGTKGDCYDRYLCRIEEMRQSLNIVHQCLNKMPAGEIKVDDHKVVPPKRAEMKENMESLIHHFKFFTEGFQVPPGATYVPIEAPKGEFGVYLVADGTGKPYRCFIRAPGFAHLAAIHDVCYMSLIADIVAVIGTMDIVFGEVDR
UniProt Q94360, 17-199: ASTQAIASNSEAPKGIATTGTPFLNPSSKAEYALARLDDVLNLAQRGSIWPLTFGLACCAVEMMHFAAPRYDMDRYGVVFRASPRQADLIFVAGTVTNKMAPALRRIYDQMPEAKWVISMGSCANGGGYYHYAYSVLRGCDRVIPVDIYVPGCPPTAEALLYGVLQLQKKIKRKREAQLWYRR

Legend:
L1 P. pacificus (PS312) = assay: Liquid development and viability assay, P. pacificus; assay type: cell-based, Pristionchus pacificus; details: liquid growth and development assay, 1 = like DMSO control, 0 = death
[1] = molecular target: H. sapiens (HEK293 cells) complex I (Homo sapiens, UniProt O75251+O75306+P03886); assay: In vitro complex I activity assay, HEK293 cell mitochondria; assay type: biochemical; details: single replicate
[2] = molecular target: C. elegans (N2) complex I (NADH:ubiquinone oxidoreductase) (Caenorhabditis elegans, UniProt P24887+Q93873+Q94360); assay: biochemical; assay type: biochemical; details: for percent in vitro complex I activity relative to solvent control, single replicates / in vitro complex I activity relative to solvent control, individual replicate: wild-type C. elegans; for percent in vitro complex I activity relative to solvent control, single replicates: individual Rep1-Rep4; for percent (%) in vitro complex I activity relative to solvent control / in vitro complex I activity relative to solvent control, individual replicate: single replicate

Compound: CC(C)Cc1ccc(C(C)c2nc3ccccc3n2C)cc1 (stereo not shown) [NPD8790]
- viability score (0-1) relative to DMSO controls (L1 P. pacificus (PS312); 2 µM): 1.000
- viability score (0-1) relative to DMSO controls (L1 P. pacificus (PS312); 3.9 µM): 1.000
- viability score (0-1) relative to DMSO controls (L1 P. pacificus (PS312); 7.8 µM): 1.000
- viability score (0-1) relative to DMSO controls (L1 P. pacificus (PS312); 15.6 µM): 1.000
- viability score (0-1) relative to DMSO controls (L1 P. pacificus (PS312); 31.3 µM): 1.000
- viability score (0-1) relative to DMSO controls (L1 P. pacificus (PS312); 62.5 µM): 0.706
- viability score (0-1) relative to DMSO controls (L1 P. pacificus (PS312); 125 µM): 0.430
- viability score (0-1) relative to DMSO controls (L1 P. pacificus (PS312); 250 µM): 0.182
- in vitro complex I activity relative to solvent control ([1]; 0.06 µM): 133.652% and 18.730% and 118.393% and 94.784% and 85.196%
- in vitro complex I activity relative to solvent control ([1]; 0.13 µM): 109.547% and 0.000% and 97.040% and 99.568% and 85.384%
- in vitro complex I activity relative to solvent control ([1]; 0.313 µM): 97.852% and 7.329% and 86.681% and 92.836% and 98.710%
- in vitro complex I activity relative to solvent control ([1]; 0.625 µM): 170.320% and 152.508% and 112.349% and 110.727% and 101.313%
- in vitro complex I activity relative to solvent control ([1]; 1.5 µM): 126.484% and 100.000% and 83.434% and 67.935% and 100.438%
- in vitro complex I activity relative to solvent control ([1]; 3 µM): 151.598% and 93.260% and 100.000% and 70.972% and 96.208%
- in vitro complex I activity relative to solvent control ([1]; 7.5 µM): 126.027% and 98.589% and 83.133% and 65.435% and 94.458%
- in vitro complex I activity relative to solvent control ([1]; 15 µM): 25.114% and 216.301% and 16.566% and 62.487% and 104.809%
- in vitro complex I activity relative to solvent control ([1]; 37.5 µM): 46.575% and 23.197% and 30.723% and 68.669% and 94.799%
- in vitro complex I activity relative to solvent control ([1]; 75 µM): 52.968% and 56.739% and 34.940% and 68.660% and 94.062%
- percent in vitro complex I activity relative to solvent control, single replicates ([2]; 0.0001 µM): 97.870% and 95.739% and 92.719%
- percent in vitro complex I activity relative to solvent control, single replicates ([2]; 0.0005 µM): 90.969% and 97.532% and 92.512%
- percent in vitro complex I activity relative to solvent control, single replicates ([2]; 0.001 µM): 83.219% and 91.266% and 96.839%
- percent in vitro complex I activity relative to solvent control, single replicates ([2]; 0.0025 µM): 90.827% and 101.498% and 95.636%
- percent in vitro complex I activity relative to solvent control, single replicates ([2]; 0.005 µM): 86.940% and 98.013% and 97.085%
- percent in vitro complex I activity relative to solvent control, single replicates ([2]; 0.013 µM): 96.926% and 100.438% and 126.374% and 98.338%
- percent in vitro complex I activity relative to solvent control, single replicates ([2]; 0.025 µM): 91.986% and 102.062% and 97.044%
- percent in vitro complex I activity relative to solvent control, single replicates ([2]; 0.063 µM): 107.116% and 82.196% and 89.540% and 103.686%
- percent (%) in vitro complex I activity relative to solvent control ([2]; 0.125 µM, N2 wild-type mitochondria, Fig. 4d data set): 95.717% and 104.220% and 103.057% and 85.253% and 97.270%
- percent (%) in vitro complex I activity relative to solvent control ([2]; 0.125 µM, wild-type C. elegans mitochondria): 97.270%
- percent in vitro complex I activity relative to solvent control, single replicates ([2]; 0.125 µM): 85.253% and 97.270% and 89.801%
- percent (%) in vitro complex I activity relative to solvent control ([2]; 0.313 µM, N2 wild-type mitochondria, Fig. 4d data set): 85.173% and 99.628% and 103.925% and 106.363% and 71.287% and 78.952%
- percent (%) in vitro complex I activity relative to solvent control ([2]; 0.313 µM, wild-type C. elegans mitochondria): 78.952% and 113.711%
- percent in vitro complex I activity relative to solvent control, single replicates ([2]; 0.313 µM): 71.287% and 78.952% and 90.969%
- percent (%) in vitro complex I activity relative to solvent control ([2]; 0.625 µM, N2 wild-type mitochondria, Fig. 4d data set): 92.700% and 94.786% and 94.946% and 107.174% and 89.930% and 79.859%
- percent (%) in vitro complex I activity relative to solvent control ([2]; 0.625 µM, wild-type C. elegans mitochondria): 79.859% and 81.110%
- percent in vitro complex I activity relative to solvent control, single replicates ([2]; 0.625 µM): 89.930% and 79.859% and 64.888%
- percent (%) in vitro complex I activity relative to solvent control ([2]; 1.5 µM, N2 wild-type mitochondria, Fig. 4d data set): 90.096% and 79.702% and 84.446% and 77.043% and 77.079% and 65.007%
- percent (%) in vitro complex I activity relative to solvent control ([2]; 1.5 µM, wild-type C. elegans mitochondria): 85.561% and 65.007% and 66.965%
- percent in vitro complex I activity relative to solvent control, single replicates ([2]; 1.5 µM): 85.561% and 77.079% and 65.007% and 53.572%
- percent (%) in vitro complex I activity relative to solvent control ([2]; 3 µM, N2 wild-type mitochondria, Fig. 4d data set): 67.855% and 64.339% and 74.730% and 68.247% and 50.593% and 43.869%
- percent (%) in vitro complex I activity relative to solvent control ([2]; 3 µM, wild-type C. elegans mitochondria): 63.902% and 43.869% and 49.754%
- percent in vitro complex I activity relative to solvent control, single replicates ([2]; 3 µM): 63.902% and 50.593% and 43.869% and 39.804%
- percent (%) in vitro complex I activity relative to solvent control ([2]; 7.5 µM, N2 wild-type mitochondria, Fig. 4d data set): 29.825% and 31.471% and 31.992% and 31.566% and 29.179% and 11.826%
- percent (%) in vitro complex I activity relative to solvent control ([2]; 7.5 µM, wild-type C. elegans mitochondria): 26.429% and 11.826% and 16.504%
- percent in vitro complex I activity relative to solvent control, single replicates ([2]; 7.5 µM): 26.429% and 29.179% and 11.826% and 13.203%
- percent (%) in vitro complex I activity relative to solvent control ([2]; 15 µM, N2 wild-type mitochondria, Fig. 4d data set): 8.829% and 13.873% and 13.052% and 7.424% and 9.250% and 1.000%
- percent (%) in vitro complex I activity relative to solvent control ([2]; 15 µM, wild-type C. elegans mitochondria): 18.930% and 1.000% and 3.561%
- percent in vitro complex I activity relative to solvent control, single replicates ([2]; 15 µM): 18.930% and 9.250% and 1.000% and 2.848%
- percent (%) in vitro complex I activity relative to solvent control ([2]; 37.5 µM, N2 wild-type mitochondria, Fig. 4d data set): 6.621% and 10.335% and 5.250% and 2.308% and 3.323% and 2.205%
- percent (%) in vitro complex I activity relative to solvent control ([2]; 37.5 µM, wild-type C. elegans mitochondria): 4.585% and 2.205% and 4.866%
- percent in vitro complex I activity relative to solvent control, single replicates ([2]; 37.5 µM): 4.585% and 3.323% and 2.205% and 3.893%
- remaining activity at 75 µM ([2]; 75 µM, wild-type C. elegans mitochondria, mean of replicates, read-out: percent (%) in vitro complex I activity relative to solvent control): 12.3%
- percent (%) in vitro complex I activity relative to solvent control ([2]; 75 µM, wild-type C. elegans mitochondria): 5.354% and 12.186% and 19.314%
- percent in vitro complex I activity relative to solvent control, single replicates ([2]; 75 µM): 5.354% and 20.312% and 12.186% and 15.451%
- remaining activity at 75 µM ([2]; C. elegans mitochondria, 75 µM, Mean of replicates, read-out: in vitro complex I activity relative to solvent control): 12.3%
- remaining activity at 75 µM ([2]; C. elegans mitochondria, 75 µM, Mean, read-out: in vitro complex I activity relative to solvent control): 12.3%
- activity at 0.013 µM ([2]; C. elegans, dose 0.013 µM, Mean of replicates, read-out: Complex I activity, dose-response data): 115%
- activity at 75 µM ([2]; C. elegans, dose 75 µM, Mean of replicates, read-out: Complex I activity, dose-response data): 12.3%
- in vitro complex I activity relative to solvent control, individual replicate ([2]; dose 0.0001 µM): 97.870% and 95.739% and 92.719%
- in vitro complex I activity relative to solvent control, individual replicate ([2]; dose 0.0005 µM): 90.969% and 97.532% and 92.512%
- in vitro complex I activity relative to solvent control, individual replicate ([2]; dose 0.001 µM): 83.219% and 91.266% and 96.839%
- in vitro complex I activity relative to solvent control, individual replicate ([2]; dose 0.0025 µM): 90.827% and 101.498% and 95.636%
- in vitro complex I activity relative to solvent control, individual replicate ([2]; dose 0.005 µM): 86.940% and 98.013% and 97.085%
- in vitro complex I activity relative to solvent control, individual replicate ([2]; dose 0.013 µM): 96.926% and 100.438% and 126.374% and 98.338%
- in vitro complex I activity relative to solvent control, individual replicate ([2]; dose 0.025 µM): 91.986% and 102.062% and 97.044%
- in vitro complex I activity relative to solvent control, individual replicate ([2]; dose 0.063 µM): 107.116% and 82.196% and 89.540% and 103.686%
- in vitro complex I activity relative to solvent control, individual replicate ([2]; dose 0.125 µM): 85.253% and 97.270% and 89.801%
- in vitro complex I activity relative to solvent control, individual replicate ([2]; dose 0.313 µM): 71.287% and 78.952% and 90.969%
